Laboratory results: patent US20100035871A1, “BENZOXAZINE DERIVATIVES AND USES THEREOF” (priority 2006, published 2010)

Sequences of proteins named here, by UniProt entry; tags and fusion partners are left off. Residues count along the entry.
UniProt P28335, 33-458: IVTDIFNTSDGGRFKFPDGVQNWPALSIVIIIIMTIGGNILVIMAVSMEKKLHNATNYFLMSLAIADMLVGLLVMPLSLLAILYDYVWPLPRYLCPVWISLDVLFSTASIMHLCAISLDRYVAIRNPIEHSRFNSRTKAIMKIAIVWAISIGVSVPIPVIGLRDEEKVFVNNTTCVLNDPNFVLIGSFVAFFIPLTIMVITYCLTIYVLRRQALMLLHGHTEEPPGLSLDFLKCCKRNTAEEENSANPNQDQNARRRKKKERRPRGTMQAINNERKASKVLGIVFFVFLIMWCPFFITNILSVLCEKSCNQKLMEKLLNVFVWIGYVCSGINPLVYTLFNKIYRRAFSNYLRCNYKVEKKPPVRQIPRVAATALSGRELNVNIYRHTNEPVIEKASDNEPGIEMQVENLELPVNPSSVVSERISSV

Experiments:
[1] = molecular target: T1, human 5-HT2C receptor (Homo sapiens, UniProt P28335); test: 5-HT2C receptor-stimulated calcium mobilization (FLIPR) in CHO cells; assay type: cell-based; conditions: reference compounds
T1 construct: expressed in transfected cells; host or cells: CHO (Chinese Hamster Ovary) cells; membrane preparation

[2] = molecular target: T1, human 5-HT2C receptor; test: 5-HT2C receptor binding, [125I]DOI displacement, membranes of transfected CHO cells; conditions: reference compounds; value (95% confidence interval); [125I]DOI binding

Clc1cccc(N2CCNCC2)c1 [mCPP, meta-chlorophenylpiperazine, reference compound]
EC50 [1]: 5.4 nM | Ki [2]: 6.5 nM
